# Assay results published in the pKa sets of Baltruschat and Czodrowski (2020).
# Conditions: experimental values compiled from the literature
row,Structure (SMILES),pKa
1,CCOP(=O)(SC(C)CC)N1CCCC1 (stereo unspecified),25
2,C[n+]1ccc(/C=N/O)cc1.[I-],8.6
3,COc1ccc(CN(CC(=O)NC(C)C)C(=O)CCCCC[n+]2ccc(/C=N/O)cc2)cc1.[Br-],8.5
4,NC1CCCCC1.NP(=O)(O)N(CCCl)CCCl,4.58
5,CCOP(=O)(OCC)Oc1ccc([N+](=O)[O-])cc1,8.5
6,O=[N+]([O-])c1cccc([N+](=O)[O-])c1O,3.7
